Data on one compound can be found in ChEMBL document CHEMBL5223081 (J Med Chem, 2021).

The assay is filed under the species Homo sapiens. Briefly: Selectivity index, ratio of antagonist activity at A1 receptor to antagonist activity at A2 receptor.

Where only a bound is given, the exact number is not on record here.

For `CC[C@@H]1CN2C(=O)N(C)c3nc(-c4cc(Cl)cc(Cl)c4Cl)[nH]c3C2=N1`, the Ratio was > 800.
